Legend:
[1] = tested on: REC-1 mantle cell lymphoma cells; experiment: Cell proliferation assay REC-1; settings: read-out: IC50 value, REC-1 cells, 120 hours
[2] = target: BTK C481S (Act) (Homo sapiens, UniProt Q06187, C481S); experiment: Binding kinetics assay (surface plasmon resonance) BTK C481S; settings: SPR, 22 °C
Method: (§1) Binding Kinetics Assay wt-BTK, BTK C481S, LCK, FGFR1, FLT3, PDGFR-β, FMS, LYN, MEK1, AUR-B. ITK. VEGFR, EGFR, FGFR3, AXL, c-MET, SRC, YES, ABL, RET and IGFR1 (Surface Plasmon Resonance)
(§2) Streptavidin-coated chips (Cat. No. BR100531), disposables and maintenance kits for Biacore were purchased from Cytiva (Eindhoven, The Netherlands). […] The kinetic constants of the compounds were determined with single cycle kinetics with five consecutive injections with an increasing compound concentration with ranges of 3.16-316 nM. […] The SPR sensorgrams were analyzed with Biacore Evaluation Software by using a method of double referencing. […] Target residence time (τ) for the 1:1 binding model was calculated from the dissociation constant kd with the formula T=1/kd. Target residence for an induced fit model was calculated as described (Tummino and Copeland, 2008).

The chains behind the UniProt entries cited, without tags or fusion partners. Where a name states a change or a piece, a line headed by the entry shows the natural chain unless it says otherwise. Residues count along the entry.
UniProt Q06187, whole entry: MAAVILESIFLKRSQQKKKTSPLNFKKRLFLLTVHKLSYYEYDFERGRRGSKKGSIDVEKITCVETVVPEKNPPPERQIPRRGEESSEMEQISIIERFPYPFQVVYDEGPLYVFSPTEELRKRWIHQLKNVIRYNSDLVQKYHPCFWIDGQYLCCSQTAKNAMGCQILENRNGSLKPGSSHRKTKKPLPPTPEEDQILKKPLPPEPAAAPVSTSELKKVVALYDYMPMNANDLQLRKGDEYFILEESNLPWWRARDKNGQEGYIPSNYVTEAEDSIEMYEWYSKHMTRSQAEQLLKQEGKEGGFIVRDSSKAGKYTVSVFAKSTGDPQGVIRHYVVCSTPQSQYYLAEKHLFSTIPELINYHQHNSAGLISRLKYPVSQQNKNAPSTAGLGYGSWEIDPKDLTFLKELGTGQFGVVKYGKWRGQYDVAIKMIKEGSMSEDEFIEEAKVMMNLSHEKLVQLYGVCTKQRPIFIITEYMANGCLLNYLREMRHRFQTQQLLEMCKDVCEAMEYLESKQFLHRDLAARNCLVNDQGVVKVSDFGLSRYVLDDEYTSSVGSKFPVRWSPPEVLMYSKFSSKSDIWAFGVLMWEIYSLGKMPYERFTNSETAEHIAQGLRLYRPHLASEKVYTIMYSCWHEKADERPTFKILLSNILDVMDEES
UniProt Q06187, whole entry C481S: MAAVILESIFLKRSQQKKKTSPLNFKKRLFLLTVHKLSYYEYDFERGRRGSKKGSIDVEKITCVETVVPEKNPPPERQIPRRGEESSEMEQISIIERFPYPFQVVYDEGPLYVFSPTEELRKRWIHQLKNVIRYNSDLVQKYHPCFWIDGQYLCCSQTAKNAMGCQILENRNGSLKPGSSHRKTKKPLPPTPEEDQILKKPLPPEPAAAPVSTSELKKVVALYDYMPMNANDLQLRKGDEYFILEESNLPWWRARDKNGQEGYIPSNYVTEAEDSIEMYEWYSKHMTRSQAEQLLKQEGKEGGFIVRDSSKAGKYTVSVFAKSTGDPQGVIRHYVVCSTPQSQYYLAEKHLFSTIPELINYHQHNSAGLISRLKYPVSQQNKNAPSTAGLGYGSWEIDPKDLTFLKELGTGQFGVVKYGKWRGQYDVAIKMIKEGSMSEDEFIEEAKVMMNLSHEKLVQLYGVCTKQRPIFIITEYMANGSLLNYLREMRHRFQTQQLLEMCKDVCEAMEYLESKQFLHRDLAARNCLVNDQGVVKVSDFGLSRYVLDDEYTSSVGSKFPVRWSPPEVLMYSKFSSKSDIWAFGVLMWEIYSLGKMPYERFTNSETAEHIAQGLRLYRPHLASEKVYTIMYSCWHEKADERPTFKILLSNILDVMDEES
UniProt P42680, whole entry: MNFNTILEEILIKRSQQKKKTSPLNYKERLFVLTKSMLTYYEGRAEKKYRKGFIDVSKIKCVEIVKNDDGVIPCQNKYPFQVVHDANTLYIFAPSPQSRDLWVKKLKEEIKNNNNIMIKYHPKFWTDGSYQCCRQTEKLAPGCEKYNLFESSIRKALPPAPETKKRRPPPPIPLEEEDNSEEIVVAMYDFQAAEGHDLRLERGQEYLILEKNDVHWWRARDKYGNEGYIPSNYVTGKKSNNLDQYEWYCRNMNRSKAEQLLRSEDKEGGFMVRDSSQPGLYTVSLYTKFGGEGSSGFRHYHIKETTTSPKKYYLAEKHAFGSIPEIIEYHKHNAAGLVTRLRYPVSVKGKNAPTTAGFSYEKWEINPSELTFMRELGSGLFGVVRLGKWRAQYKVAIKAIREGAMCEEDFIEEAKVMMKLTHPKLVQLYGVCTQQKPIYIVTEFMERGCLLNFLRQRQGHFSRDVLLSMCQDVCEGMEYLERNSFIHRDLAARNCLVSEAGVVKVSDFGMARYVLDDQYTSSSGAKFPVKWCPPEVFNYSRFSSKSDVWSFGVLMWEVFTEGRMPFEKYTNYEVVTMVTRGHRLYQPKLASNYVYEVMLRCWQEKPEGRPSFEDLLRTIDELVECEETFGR
UniProt P08069, 31-1367 limits assumed: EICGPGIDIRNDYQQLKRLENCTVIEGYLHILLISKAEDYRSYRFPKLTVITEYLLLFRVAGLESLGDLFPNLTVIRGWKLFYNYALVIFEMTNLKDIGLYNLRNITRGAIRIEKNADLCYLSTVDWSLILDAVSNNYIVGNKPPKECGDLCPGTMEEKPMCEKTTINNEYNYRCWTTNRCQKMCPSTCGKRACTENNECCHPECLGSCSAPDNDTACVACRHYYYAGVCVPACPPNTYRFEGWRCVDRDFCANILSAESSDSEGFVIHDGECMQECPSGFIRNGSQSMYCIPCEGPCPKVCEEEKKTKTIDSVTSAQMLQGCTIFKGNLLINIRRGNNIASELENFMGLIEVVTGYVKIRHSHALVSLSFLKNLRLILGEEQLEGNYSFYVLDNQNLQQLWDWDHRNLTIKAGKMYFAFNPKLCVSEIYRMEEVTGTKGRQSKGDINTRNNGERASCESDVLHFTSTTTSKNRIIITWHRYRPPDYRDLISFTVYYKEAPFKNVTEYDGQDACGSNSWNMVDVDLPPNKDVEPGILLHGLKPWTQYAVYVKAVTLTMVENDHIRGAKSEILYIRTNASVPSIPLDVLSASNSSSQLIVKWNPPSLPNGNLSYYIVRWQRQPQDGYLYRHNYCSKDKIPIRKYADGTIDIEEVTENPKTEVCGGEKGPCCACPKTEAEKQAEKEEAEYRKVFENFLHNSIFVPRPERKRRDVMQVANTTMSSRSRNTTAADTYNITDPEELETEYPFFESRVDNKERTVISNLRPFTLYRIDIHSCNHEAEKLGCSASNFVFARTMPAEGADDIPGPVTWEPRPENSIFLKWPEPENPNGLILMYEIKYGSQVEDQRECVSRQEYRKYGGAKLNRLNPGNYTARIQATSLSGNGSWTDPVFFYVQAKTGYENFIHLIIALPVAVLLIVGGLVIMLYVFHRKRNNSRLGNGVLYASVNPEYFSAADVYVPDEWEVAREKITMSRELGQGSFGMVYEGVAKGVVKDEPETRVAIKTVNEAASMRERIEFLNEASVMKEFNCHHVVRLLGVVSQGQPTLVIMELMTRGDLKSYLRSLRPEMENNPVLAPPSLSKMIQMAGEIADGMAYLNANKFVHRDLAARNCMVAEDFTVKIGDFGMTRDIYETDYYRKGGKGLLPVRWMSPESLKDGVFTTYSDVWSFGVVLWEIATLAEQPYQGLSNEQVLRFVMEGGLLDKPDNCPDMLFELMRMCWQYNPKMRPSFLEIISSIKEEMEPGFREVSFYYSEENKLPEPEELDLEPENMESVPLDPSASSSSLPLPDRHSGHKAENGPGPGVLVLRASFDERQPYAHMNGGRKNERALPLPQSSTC

[3] = target: Tec (Homo sapiens, UniProt P42680); experiment: Binding kinetics assay TEC (surface plasmon resonance); settings: SPR, His-tagged TEC on Ni-NTA chip
Method: Binding Kinetics Assay TEC (Surface Plasmon Resonance)
An aliquot of N-terminal His-tagged TEC (Eurofins DiscoverX, cat. no. 14-801) was thawed, diluted to 4.8 μg/mL in pre-cooled Biacore buffer (10 mM Tris pH 7.5, 0.05% Tween, 150 mM NaCl and 5 mM MgCl2) and immobilized on a Ni-NTA chip with His-tag capturing, followed by amine-coupling. First, the surface of the chip was first washed for 420 seconds with 0.35 M EDTA, subsequently loaded with 1 mM NiCl for 420 seconds, followed by activation for 1000 seconds with a 1:1 dilution of 0.2 M 1-ethyl-3-(3-dimethylaminopropyl) carbodiimide hydrochloride (EDC) and 50 mM N-hydroxysuccinimide (NHS). His-tagged protein was immobilized on the surface until an immobilization level of 4000 RU was obtained. Remaining active groups on the sensor surface were blocked by injection of 1 M ethanolamine for 420 seconds. The immobilization procedure was performed at 22 °C. Channel 1 was immobilized as described above without injection of His-tagged protein and used as a reference channel to correct for buffer effects, other channels were immobilized as described above. After immobilization, buffer was changed to Biacore buffer containing 1% DMSO. A pre-run was performed for a period of ≥30 min at a flow rate of 30 μL/min until a stable surface was obtained. The kinetic constants of the compounds were determined with single cycle kinetics with five consecutive injections with an increasing compound concentration with ranges of 3.16-316 nM. Experiments were performed with an association time of 100 s per concentration and a dissociation time of 1200 s, except for compounds with a long target residence time, such as irreversible inhibitors, where dissociation time was increased. To circumvent problems of mass transport limitation, a flow rate of 30 μl/min was used. A blank run with the same conditions was performed before the compound was injected. The SPR sensorgrams were analyzed with Biacore Evaluation Software by using a method of double referencing. First the reference channel was subtracted from the channel containing immobilized protein. Subsequently, the reference curve obtained with buffer injections was subtracted. The resulting curve was fitted with a 1:1 binding model. Compounds that bound according to an induced fit model were fitted with a two-state reaction model. The kinetic constants (ka, […], KD) of duplicates were geometrically averaged. Target residence time (τ) for the 1:1 binding model was calculated from the dissociation constant kd with the formula T=1/kd. Target residence for an induced fit model was calculated as described (Tummino and Copeland, 2008).

[4] = target: BTK (Act) (Homo sapiens, UniProt Q06187); experiment: Binding kinetics assay (surface plasmon resonance) wt-BTK; settings: SPR, 22 °C
Text: as §1
Streptavidin-coated chips (Cat. No. BR100531), disposables and maintenance kits for Biacore were purchased from Cytiva (Eindhoven, The Netherlands). Biotinylated wt-BTK enzym (Carna Biosciences, cat. no. 08-480-20N), BTK C481S (Carna Biosciences, cat. no. 08-417-20N), LCK (Carna Biosciences, cat. no. 08-470-20N), FGFR1 (Carna Biosciences, cat. no. 08-435-20N), FLT3 (Carna Biosciences, cat. no. 08-454-20N), PDGFR-β (Carna Biosciences, cat. no. 08-458-20N), FMS (Carna Biosciences, cat. no. 08-455-20N), LYN (Carna Biosciences, cat. no. 08-471-20N), MEK1 (Carna Biosciences, cat. no. 07-441-10-20N), AUR-B (Carna Biosciences, cat. no. 05-402-21N), ITK (Carna Biosciences, cat. no. 08-481-20N), VEGFR (Carna Biosciences, cat. no. 08-491-20N), EGFR (Carna Biosciences, cat. no. 08-415-20N), FGFR3 (Carna Biosciences, cat. no. 08-433-20N), AXL (Carna Biosciences, cat. no. 08-407-20N), c-MET (Carna Biosciences, cat. no. 08-451-20N), SRC (Carna Biosciences, cat. no. 08-473-20N), YES (Carna Biosciences, cat. no. 08-475-20N), ABL (Carna Biosciences, cat. no. 08-401-20N), RET (Carna Biosciences, cat. no. 08-459-20N) or IGFR1 (Carna Biosciences, cat. no. 08-441-20N) were immobilized on a streptavidin-coated chip to a level of about 8000 resonance units (RU) using Biacore buffer (50 mM Tris pH 7.5, 0.05% (v/v) Tween-20, 150 mM NaCl and 5 mM MgCl2)+1 mM TCEP. Remaining streptavidin was blocked with biocytin. Immobilization was performed at 4 °C. Subsequent assay steps were conducted at 22 °C. After changing buffer to Biacore buffer with 1% (v/v) dimethylsulfoxide (DMSO), a pre-run was performed for a period of at least 30 min at a flow rate of 30 μl/min to obtain a stable surface. The kinetic constants of the compounds were determined with single cycle kinetics with five consecutive injections with an increasing compound concentration with ranges of 3.16-316 nM. Experiments were performed with an association time of 100 s per concentration and a dissociation time of 1200 s, except for compounds with a long target residence time, such as irreversible inhibitors, where dissociation time was increased. To circumvent problems of mass transport limitation, a flow rate of 30 μl/min was used. A blank run with the same conditions was performed before the compound was injected. The SPR sensorgrams were analyzed with Biacore Evaluation Software by using a method of double referencing. First the reference channel was subtracted from the channel containing immobilized protein. Subsequently, the reference curve obtained with buffer injections was subtracted. The resulting curve was fitted with a 1:1 binding model. Compounds that bound according to an induced fit model were fitted with a two-state reaction model. The kinetic constants (ka, […], KD) of duplicates were geometrically averaged. Target residence time (τ) for the 1:1 binding model was calculated from the dissociation constant kd with the formula T=1/kd. Target residence for an induced fit model was calculated as described (Tummino and Copeland, 2008).

[5] = target: IGFR1 (Homo sapiens, UniProt P08069); experiment: Binding kinetics assay (surface plasmon resonance) IGFR1; settings: IGFR1, SPR, 22 °C
Method: as §1, §2

IC50 [1] [µM]	Target residence time Tau (τ) [2]	Kd [3] [µM]	Target residence time Tau (τ) [3]	Target residence time Tau (τ) [4]	Kd [5] [µM]	SMILES
< 0.05	A (τ between 0.2 h and 1 h)	< 0.005	A (τ between 0.2 h and 1 h)	B (τ between 1 and 3 h)		C[C@@H]1CC(=O)N[C@@H]2CCC[C@H](C2)n2nc(-c3ccc(C(=O)Nc4cc(C(F)(F)F)ccn4)cc3)c3c(N)ncc(c32)/C=C/CN1C
					0.005 to 0.05	COc1cc(-c2ccccc2)nc2cc(-c3nn4c5c(cnc(N)c35)/C=C/CCCCCC(=O)N[C@@H]3CCC[C@@H]4C3)ccc12
< 0.05	B (τ between 1 and 3 h)			B (τ between 1 and 3 h)		COc1ccc(F)cc1C(=O)NCc1ccc(-c2nn3c4c(cnc(N)c24)/C=C/CCCCCC(=O)N[C@H](C)CC3)cc1

Reference: patent US20260382605A1, “REVERSIBLE MACROCYCLIC KINASE INHIBITORS” (published 2026)
